{"sequences": {"note": "The chains behind the UniProt entries cited, without tags or fusion partners. Residues count along the entry.", "UniProt P31652, whole entry": "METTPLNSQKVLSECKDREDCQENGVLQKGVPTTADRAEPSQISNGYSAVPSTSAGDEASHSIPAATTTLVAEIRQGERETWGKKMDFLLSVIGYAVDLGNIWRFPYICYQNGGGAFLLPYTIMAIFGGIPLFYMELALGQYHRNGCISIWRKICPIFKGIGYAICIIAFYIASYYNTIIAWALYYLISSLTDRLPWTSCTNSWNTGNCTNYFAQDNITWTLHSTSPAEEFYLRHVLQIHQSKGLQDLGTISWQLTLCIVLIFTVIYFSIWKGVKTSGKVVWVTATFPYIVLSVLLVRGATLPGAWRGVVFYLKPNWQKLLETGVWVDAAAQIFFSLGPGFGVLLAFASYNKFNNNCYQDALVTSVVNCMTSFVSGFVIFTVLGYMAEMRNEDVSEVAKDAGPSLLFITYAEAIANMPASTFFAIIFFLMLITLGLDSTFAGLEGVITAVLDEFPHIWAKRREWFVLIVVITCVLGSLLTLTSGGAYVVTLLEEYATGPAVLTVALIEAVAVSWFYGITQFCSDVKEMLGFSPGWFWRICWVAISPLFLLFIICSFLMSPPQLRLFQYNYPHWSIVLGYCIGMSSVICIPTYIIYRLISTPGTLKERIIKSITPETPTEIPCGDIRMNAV", "UniProt P23977, whole entry": "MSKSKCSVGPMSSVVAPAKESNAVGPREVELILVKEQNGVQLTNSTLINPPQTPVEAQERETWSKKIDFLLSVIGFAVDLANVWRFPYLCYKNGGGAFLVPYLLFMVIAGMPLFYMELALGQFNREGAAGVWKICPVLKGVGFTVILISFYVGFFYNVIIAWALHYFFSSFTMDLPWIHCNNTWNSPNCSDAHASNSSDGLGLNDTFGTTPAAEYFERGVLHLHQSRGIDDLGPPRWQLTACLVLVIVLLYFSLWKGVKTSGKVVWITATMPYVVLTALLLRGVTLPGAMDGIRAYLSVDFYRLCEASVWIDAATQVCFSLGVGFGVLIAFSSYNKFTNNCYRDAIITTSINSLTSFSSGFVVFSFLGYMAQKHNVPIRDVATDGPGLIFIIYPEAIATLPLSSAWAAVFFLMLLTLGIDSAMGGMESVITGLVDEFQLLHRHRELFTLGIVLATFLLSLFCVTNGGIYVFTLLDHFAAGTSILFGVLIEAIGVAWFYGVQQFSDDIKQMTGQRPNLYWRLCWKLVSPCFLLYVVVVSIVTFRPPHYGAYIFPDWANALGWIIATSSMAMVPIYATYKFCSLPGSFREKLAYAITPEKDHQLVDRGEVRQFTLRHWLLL", "UniProt Q63380, 1-617": "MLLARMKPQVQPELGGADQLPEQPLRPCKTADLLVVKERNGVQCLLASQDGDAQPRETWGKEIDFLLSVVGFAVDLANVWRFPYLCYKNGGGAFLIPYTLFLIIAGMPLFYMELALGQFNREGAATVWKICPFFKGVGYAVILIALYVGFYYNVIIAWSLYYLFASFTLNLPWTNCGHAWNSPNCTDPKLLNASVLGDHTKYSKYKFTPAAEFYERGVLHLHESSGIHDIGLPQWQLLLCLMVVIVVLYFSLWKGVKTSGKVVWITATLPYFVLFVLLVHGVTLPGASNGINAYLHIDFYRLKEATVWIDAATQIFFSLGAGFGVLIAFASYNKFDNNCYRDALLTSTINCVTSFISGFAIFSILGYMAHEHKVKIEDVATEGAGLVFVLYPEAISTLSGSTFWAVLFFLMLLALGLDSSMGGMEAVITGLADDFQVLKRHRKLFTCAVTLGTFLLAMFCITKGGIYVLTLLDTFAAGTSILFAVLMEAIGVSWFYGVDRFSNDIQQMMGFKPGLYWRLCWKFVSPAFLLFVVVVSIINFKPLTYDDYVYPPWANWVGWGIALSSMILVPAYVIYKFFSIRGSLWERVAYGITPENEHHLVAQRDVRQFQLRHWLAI"}, "source": "patent US8017791B2", "about": "(dated 2011)", "key": {"NET (Rattus norvegicus)": {"molecular_target": "NET (Rattus norvegicus)", "assay": "NET uptake inhibition, [3H]NE", "assay_type": "biochemical"}, "SERT [1]": {"molecular_target": "T1, SERT (Rattus norvegicus, UniProt P31652)", "assay": "SERT uptake inhibition, [3H]5-HT", "assay_type": "biochemical"}, "DAT [2]": {"molecular_target": "T2, DAT (Rattus norvegicus, UniProt P23977)", "assay": "Inhibition of [3H]DA uptake by DAT into rat striatal synaptosomes", "assay_type": "biochemical"}, "DAT [3]": {"molecular_target": "T2, DAT", "assay": "Inhibition of [3H]WIN 35,428 binding to DAT"}, "NET [4]": {"molecular_target": "NET (Rattus norvegicus, UniProt Q9WTR4)", "assay": "Inhibition of [3H]nisoxetine binding to NET"}, "DAT [5]": {"molecular_target": "T2, DAT", "conditions": "read-out: DAT binding, IC50, [3H]Win 35,428; Table 2; values marked b: See reference # 22; cited from earlier work"}, "NET [6]": {"molecular_target": "NET (Rattus norvegicus, UniProt Q63380)", "assay": "NET uptake inhibition, [3H]NE", "assay_type": "biochemical"}, "SERT [7]": {"molecular_target": "T1, SERT", "assay": "Inhibition of [3H]citalopram binding to SERT"}, "NET [8]": {"system": "NET", "assay": "Inhibition of [3H]nisoxetine binding to NET", "set-up": "species or system rat"}, "[9]": {"conditions": "read-out: NET binding, IC50 [3H]nisoxetine, Table 2, average ± SEM"}}, "note": "Entries after “also recorded” stand apart in the source; their conditions may differ. Where a name gives a salt, the structure may show the parent alone. Read-outs that look alike come from different tables or passages of the source."}
{"smiles": "O[C@H]1C[C@H](C(c2ccccc2)c2ccccc2)OC[C@@H]1NCc1ccc2[nH]ccc2c1", "note": "[(+)-32b, (2R,4S,5S)-2-benzhydryl-5-[(1H-indol-5-ylmethyl)-amino]-tetrahydropyran-4-ol]", "values": [{"measurement": "IC50", "setting": "NET (Rattus norvegicus)", "result": "15 ± 4.5", "unit": "nM"}, {"measurement": "IC50", "setting": "SERT [1]", "result": "272 ± 55", "unit": "nM"}]}
{"smiles": "COc1ccc(CN[C@@H]2CO[C@H](C(c3ccccc3)c3ccccc3)C[C@H]2O)cc1", "note": "[(−)-29a, (2S,4R,5R)-2-benzhydryl-5-(4-methoxy-benzylamino)-tetrahydropyran-4-ol]", "values": [{"measurement": "IC50", "setting": "NET (Rattus norvegicus)", "result": "17.7 ± 5.9", "unit": "nM"}, {"measurement": "IC50", "setting": "DAT [2]; read-out: DAT uptake, IC50 [3H]DA, Table 4, rat brain", "result": "155 ± 16", "unit": "nM"}, {"measurement": "IC50", "setting": "DAT [3]; read-out: DAT binding, IC50, [3H]Win 35,428", "result": "226 ± 40", "unit": "nM"}, {"measurement": "IC50", "setting": "SERT [1]; read-out: SERT uptake, IC50 [3H]5-HT, Table 4, rat brain", "result": "28.9 ± 4.1", "unit": "nM"}]}
{"smiles": "COC(=O)[C@H]1[C@@H](OC(=O)c2ccccc2)C[C@@H]2CC[C@H]1N2C", "note": "[Cocaine, reference compound]", "values": [{"measurement": "IC50", "setting": "NET [4]; read-out: NET binding, IC50 [3H]nisoxetine", "result": 3130, "unit": "nM"}]}
{"smiles": "N#Cc1ccc(CN[C@H]2CC[C@@H](C(c3ccccc3)c3ccccc3)OC2)cc1", "note": "(relative stereo) [Compound 16c, Cis-(6-benzhydryl-tetrahydropyran-3-yl)-(4-cyano-benzyl)-amine]", "values": [{"measurement": "IC50", "setting": "DAT [5]", "result": 52.6, "unit": "nM"}]}
{"smiles": "O[C@@H]1C[C@@H](C(c2ccccc2)c2ccccc2)OC[C@H]1NCc1ccccc1", "note": "[(−)-29d, (2S,4R,5R)-2-benzhydryl-5-benzylamino-tetrahydro-pyran 4-ol]", "values": [{"measurement": "IC50", "setting": "NET (Rattus norvegicus)", "result": "5.59 ± 1.05", "unit": "nM"}, {"measurement": "selectivity for the NET (NRI profile), in words", "setting": "NET [6]", "result": "more selective for the NET; also recorded: selective blockers for NET"}, {"measurement": "IC50", "setting": "DAT [3]", "result": "1860 ± 710", "unit": "nM"}]}
{"smiles": "COc1ccc(CN[C@H]2CO[C@@H](C(c3ccccc3)c3ccccc3)C[C@@H]2O)cc1", "note": "[(+)-29a, (2R,4S,5S)-2-benzhydryl-5-(4-methoxy-benzylamino)-tetrahydro-pyran-4-ol]", "values": [{"measurement": "IC50", "setting": "NET (Rattus norvegicus)", "result": "445 ± 39", "unit": "nM"}, {"measurement": "IC50", "setting": "DAT [2]", "result": "148 ± 22", "unit": "nM"}, {"measurement": "IC50", "setting": "DAT [3]", "result": "182 ± 11", "unit": "nM"}, {"measurement": "IC50", "setting": "SERT [1]", "result": "745 ± 30", "unit": "nM"}]}
{"smiles": "Nc1ccc(CN[C@H]2CC[C@@H](C(c3ccccc3)c3ccccc3)OC2)cc1", "note": "(relative stereo) (as salt: oxalate) [Compound 16o, Cis-(6-benzhydryl-tetrahydropyran-3-yl)-(4-amino-benzyl)-amine]", "values": [{"measurement": "melting point", "result": "151 to 153", "unit": "°C"}]}
{"smiles": "Oc1ccc(CN[C@H]2CC[C@@H](C(c3ccccc3)c3ccccc3)OC2)cc1", "note": "[(−)-37a, cis-(3S,6S)-(6-benzhydryl-tetrahydropyran-3-yl)-(4-hydroxy-benzyl)-amine]", "values": [{"measurement": "IC50", "setting": "NET (Rattus norvegicus)", "result": "5.5 ± 0.1", "unit": "nM"}]}
{"smiles": "Nc1ccc(CN[C@H]2CC[C@@H](C(c3ccccc3)c3ccccc3)OC2)cc1", "note": "(relative stereo) [Compound 16o, Cis-(6-benzhydryl-tetrahydropyran-3-yl)-(4-amino-benzyl)-amine]", "values": [{"measurement": "IC50", "setting": "SERT [7]", "result": "1690 ± 169", "unit": "nM"}, {"measurement": "SERT binding/DAT binding", "setting": "SERT [7]", "result": 11.19}, {"measurement": "IC50", "setting": "DAT [2]", "result": "155 ± 14", "unit": "nM"}, {"measurement": "NET binding/DAT binding", "setting": "NET [8]", "result": 0.81}, {"measurement": "IC50", "setting": "NET [4]; [9]", "result": "123 ± 10", "unit": "nM"}, {"measurement": "IC50", "setting": "DAT [3]", "result": "151 ± 13", "unit": "nM"}]}
{"smiles": "O=[N+]([O-])c1ccc(CN[C@H]2CC[C@@H](C(c3ccccc3)c3ccccc3)OC2)cc1", "note": "(relative stereo) [Compound 16d, Cis-(6-benzhydryl-tetrahydropyran-3-yl)-(4-nitro-benzyl)-amine]", "values": [{"measurement": "IC50", "setting": "SERT [7]", "result": "738 ± 164", "unit": "nM"}, {"measurement": "SERT binding/DAT binding", "setting": "SERT [7]", "result": 19.3}, {"measurement": "NET binding/DAT binding", "setting": "NET [8]", "result": 25.3}, {"measurement": "IC50", "setting": "NET [4]; [9]", "result": "968 ± 98", "unit": "nM"}]}
{"smiles": "Oc1ccc(CN[C@@H]2CC[C@H](C(c3ccccc3)c3ccccc3)OC2)cc1", "note": "[(+)-37a, cis-(3R,6R)-(6-benzhydryl-tetrahydropyran-3-yl)-(4-hydroxy-benzyl)-amine]", "values": [{"measurement": "IC50", "setting": "NET (Rattus norvegicus)", "result": "45.6 ± 6", "unit": "nM"}, {"measurement": "selectivity for the NET (NRI profile), in words", "setting": "NET [6]", "result": "more selective for the NET; also recorded: selective blockers for NET"}]}
{"smiles": "Oc1ccc(CN[C@H]2CC[C@@H](C(c3ccccc3)c3ccccc3)OC2)cc1", "note": "(relative stereo) [Compound 16h, Cis-(6-benzhydryl-tetrahydropyran-3-yl)-(4-hydroxy-benzyl)-amine]", "values": [{"measurement": "SERT binding/DAT binding", "setting": "SERT [7]; Table 3, selectivity ratio of IC50 values", "result": 5.1}, {"measurement": "NET binding/DAT binding", "setting": "NET [8]", "result": 0.29}, {"measurement": "NET/DAT", "setting": "NET [8]", "result": 0.29}, {"measurement": "IC50", "setting": "NET [4]; read-out: IC50 for the NET", "result": 22.6, "unit": "nM"}]}
{"smiles": "COc1ccc(CN[C@H]2CC[C@@H](C(c3ccccc3)c3ccccc3)OC2)cc1", "note": "(relative stereo) [Compound 16e, Cis-(6-benzhydryl-tetrahydropyran-3-yl)-(4-methoxy-benzyl)-amine]", "values": [{"measurement": "IC50", "setting": "SERT [7]", "result": 1180, "unit": "nM"}, {"measurement": "SERT binding/DAT binding", "setting": "SERT [7]", "result": 14}, {"measurement": "NET binding/DAT binding", "setting": "NET [8]", "result": 18.5}, {"measurement": "IC50", "setting": "NET [4]; [9]", "result": 1550, "unit": "nM"}]}
{"smiles": "O[C@@H]1C[C@@H](C(c2ccccc2)c2ccccc2)OC[C@H]1NCc1ccc2[nH]ccc2c1", "note": "[(−)-32b, (2S,4R,5R)-2-benzhydryl-5-[(1H-indol-5-ylmethyl)-amino]-tetrahydropyran-4-ol]", "values": [{"measurement": "IC50", "setting": "NET (Rattus norvegicus)", "result": "2.42 ± 0.47", "unit": "nM"}, {"measurement": "IC50", "setting": "SERT [1]", "result": "18.7 ± 1.6", "unit": "nM"}]}
